Measurements from patent US9725457B2, “6-amido derivatives of 4, 5-a epoxymorphinans for the treatment of pain” (Sloan-Kettering Institute for Cancer Research, priority 2010, dated 2017).

Tested on: mice
Experiment: Tolerance studies and effects of chronic administration (cross tolerance, precipitated withdrawal)
Protocol: Tail-flick latencies were determined before and 30 minutes after each injection. See Gistrak et al. (1989) op. cit. […] Similarly, a group of mice (n=10) were made tolerant to test compound by twice daily injections to 1 mg/kg, s.c. for 10 days. […] Animals were evaluated for signs of diarrhea and jumping. See Gistrak et al. (1989) op. cit.

CN1CC[C@]23c4c5ccc(O)c4O[C@H]2[C@@H](O)C=C[C@H]3[C@H]1C5 [morphine, reference compound]
physical dependence (withdrawal on challenge with an antagonist after chronic administration): prompt and dramatic signs of withdrawal
